## Ab-14 light chain CDR variants: yeast mating affinities

Source: Engelhart et al. 2022 (doi:10.1038/s41597-022-01779-4), MIT Lincoln Laboratory and A-Alpha Bio; data file from the FLAb repository.

Target: peptide PDVDLGDISGINAS, taken from heptad repeat 2 (HR2) of SARS-CoV-2 spike.

Parent scFv Ab-14: VH joined to VL by a (GGGGS)3 linker. Changes lie in the light chain CDRs alone.
VH: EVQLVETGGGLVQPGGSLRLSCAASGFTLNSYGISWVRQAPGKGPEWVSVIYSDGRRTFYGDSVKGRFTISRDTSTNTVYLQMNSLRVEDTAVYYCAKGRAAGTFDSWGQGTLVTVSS
VL: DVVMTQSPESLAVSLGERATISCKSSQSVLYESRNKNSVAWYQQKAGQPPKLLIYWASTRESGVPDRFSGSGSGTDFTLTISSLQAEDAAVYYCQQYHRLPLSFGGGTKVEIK

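Phage display of a naive human antibody library on the peptide gave the parent. AAYL50 was designed without a model: most single CDR substitutions and a random sample of double and triple ones. AlphaSeq pools MATa yeast showing the antibodies with MATalpha yeast showing the peptide. Pairs that bind mate more often; barcode pairs of the diploids are counted by sequencing. Scores were corrected for input abundance and mapped to Kd with protein pairs of known affinity run in the same pool. The assay was run in three technical replicates.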

The parent's light chain CDRs are KSSQSVLYESRNKNSVA, WASTRES, QQYHRLPLS; each variant's own CDRs replace them letter for letter.
Values are log10 of the apparent Kd in nM; lower means stronger binding.
Replicates are averaged; those with no signal do not enter the mean.
An entry "nd" has no value in the source: the pair was not observed among the diploids in that replicate. This suggests poor binding but is not conclusive.
As a blank, each scFv also met three strains without target: over library AAYL50, 18% of these pairings were detected, typically at 4.19 and seldom below 2.99. For each scFv, signals with the empty controls are counted beside the result, with their mean in brackets.
For reference, the parent read 0.65 as the reference entry and 1.68 as a member of this library.

| CDR-L1 | CDR-L2 | CDR-L3 | log10 Kd (nM) by replicate | mean, log10 nM | empty controls |
|---|---|---|---|---|---|
| KESQSVLYESRNKNSSA | WAVTRES | QQYHRLPLS | 3.77 / 2.66 / nd | 3.22 | 2 of 9 (4.66) |
| KSSQSGLYESRNKNSVT | WASTRES | EQYHRLPLS | 5.34 / 4.39 / 4.68 | 4.80 | 2 of 9 (3.92) |
| KSSQYVLYWSRNKNSVA | WASTRES | QQCHRLPLS | 4.70 / 3.47 / 3.87 | 4.01 | 0 of 9 |
| KSSQSVLYESRNKNSVQ | WASTRES | QQCHRLPLT | nd / nd / nd | nd | 0 of 9 |
| KSSQSVLYHSRNVNSVA | WASTRES | AQYHRLPLS | 1.92 / 2.13 / 2.34 | 2.13 | 3 of 9 (4.86) |
| KSSQSVLYESRNKNSVA | NASTRES | QQYHELPLS | 0.82 / 1.58 / 1.68 | 1.36 | 0 of 9 |
| KSSQSVLYESRNKNSVA | YASTRFS | QQYHRLPLS | 1.16 / 1.10 / 1.15 | 1.14 | 1 of 9 (2.65) |
| KSSQGVLRESRNKNSVA | WASTRES | QQYHRLPLC | 3.05 / 2.77 / 2.85 | 2.89 | 5 of 9 (5.26) |
| KSQQSVLPESRNKNSVA | NASTRES | QQYHRLPLS | -0.43 / -0.04 / -0.29 | -0.26 | 9 of 9 (5.48) |
| KSSQSVLYCSRNKNSVA | WASTDES | QQYHRLPLS | nd / 4.95 / nd | 4.95 | 2 of 9 (3.78) |
| KSSQSVLYESRNKNSVA | WAAKRFS | QQYHRLPLS | nd / nd / 5.46 | 5.46 | 2 of 9 (3.32) |
| KSSQSVLYESVNKNSVA | WASTRES | QQMHRLPLS | 4.84 / nd / nd | 4.84 | 3 of 9 (5.05) |
| KSSQSVLYESRNVNSCA | WASTRES | QQYHRLPSS | nd / nd / nd | nd | 0 of 9 |
| KSSQSVLYESRNKNSVA | WAPTRES | GQYHRLPLW | nd / nd / nd | nd | 3 of 9 (3.52) |
| FSSQSVLYESRNKNQVL | WASTRES | QQYHRLPLS | nd / nd / nd | nd | 2 of 9 (3.84) |
| KQSQSVLKESRNKNSVA | EASTRES | QQYHRLPLS | nd / nd / nd | nd | 0 of 9 |
| KSSQSVLYETRNKNSVV | WASTRCS | QQYHRLPLS | nd / nd / nd | nd | 2 of 9 (4.57) |
| KSSQGVLYESRNCNSVA | WPSTRES | QQYHRLPLS | nd / 4.62 / 3.63 | 4.13 | 1 of 9 (3.41) |
| KSSQSVLYESRNLNFVA | WASTRES | QQYHRLPLS | nd / nd / nd | nd | 1 of 9 (4.65) |
| KSMQSVLYESRNKVSVA | WASTRES | QQYHRGPLS | nd / nd / nd | nd | 0 of 9 |
| KSSQSVLYESRNKNSVA | WASIKES | QQYDRLPLS | 1.41 / 1.53 / 1.43 | 1.45 | 5 of 9 (4.89) |
| FESQSVLYESRNKNSVA | WASTRES | QQVHRLPLS | nd / nd / nd | nd | 1 of 9 (2.39) |
| KSSQSVWYESRNKNSGA | WASTVES | QQYHRLPLS | 3.39 / 3.34 / 3.97 | 3.57 | 2 of 9 (5.56) |
| KCSQSVLYESRNKNSVA | WASTRES | DDYHRLPLS | 1.39 / 1.45 / 1.34 | 1.39 | 3 of 9 (3.58) |
| KSSQSVLYESRNKNSVA | WAHTRES | QQYHRLPSA | 0.75 / 0.94 / 0.93 | 0.87 | 1 of 9 (2.73) |
| KSSQSVLYIQRNKNSVA | WASTRES | QQYDRLPLS | 2.35 / 2.39 / 2.80 | 2.51 | 3 of 9 (5.26) |
| KSSQSFLYESRNKNSVA | WASTRES | QQRLRLPLS | 1.37 / 1.37 / 1.40 | 1.38 | 3 of 9 (4.16) |
| KSSQSVLYSSRNKNSVA | WASTCER | QQYHRLPLS | 5.02 / nd / nd | 5.02 | 2 of 9 (3.85) |
| KSSQSVLYESRNKNSVA | WARTREP | QQYHALPLS | 3.09 / nd / nd | 3.09 | 2 of 9 (3.41) |
| KSSQSVLYESRNKNSVA | WDSTVES | QQYHRLPLP | 3.29 / 4.21 / 3.17 | 3.56 | 3 of 9 (4.34) |
| LSSQSVLYESRNKNSVA | AASTRES | PQYHRLPLS | 0.91 / 0.86 / 0.90 | 0.89 | 2 of 9 (3.61) |
| KSKLSVLYESRNKNSVA | WASTRES | QHYHRLPLS | 2.66 / 2.41 / 3.17 | 2.75 | 1 of 9 (3.82) |
| KSPQSVLYESRNKNEVA | WASTRES | QQYERLPLS | nd / nd / nd | nd | 1 of 9 (1.88) |
| KSSQSVLYESRNLNSMA | WASTRES | QQYHRHPLS | nd / nd / nd | nd | 2 of 9 (5.49) |

For reference, 5 entries of the list once more:

CDR-L1,CDR-L2,CDR-L3,log10 Kd (nM) by replicate,"mean, log10 nM",empty controls
KSSQSVLYESRNKNSVA,WAHTRES,QQYHRLPSA,0.75 / 0.94 / 0.93,0.87,1 of 9 (2.73)
KSSQSVLYESRNKNSVA,WDSTVES,QQYHRLPLP,3.29 / 4.21 / 3.17,3.56,3 of 9 (4.34)
KSSQSFLYESRNKNSVA,WASTRES,QQRLRLPLS,1.37 / 1.37 / 1.40,1.38,3 of 9 (4.16)
FESQSVLYESRNKNSVA,WASTRES,QQVHRLPLS,nd / nd / nd,nd,1 of 9 (2.39)
KSSQGVLRESRNKNSVA,WASTRES,QQYHRLPLC,3.05 / 2.77 / 2.85,2.89,5 of 9 (5.26)